Tests used:
Conditions in all cases: in vivo
[1] = system: Rattus norvegicus; experiment: Toxicity in Wistar rat assessed as sensitivity to light at 16 umol/kg, iv
[2] = system: Rattus norvegicus; experiment: Toxicity in Wistar rat assessed as labored breathing at 32 umol/kg, iv
[3] = system: Rattus norvegicus; experiment: Toxicity in Wistar rat assessed as lethality at 32 umol/kg, iv

Compound	Activity [1]	Activity [2]	Activity [3]
COc1ccc(CN(CC(=O)NC(C)C)C(=O)CCCCCn2cc[n+](C)c2/C=N\O)cc1.[I-]	Non-Toxic	Non-Toxic	
COc1ccc(CN(CC(=O)NCc2ccccc2)C(=O)CCCCCn2ccnc2/C=N/O)cc1	Non-Toxic	Non-Toxic	
COc1ccc(CN(CC(=O)NCc2ccccc2)C(=O)CCCCCn2cc[n+](C)c2/C=N\O)cc1.[I-]	Toxic	Toxic	
C[n+]1ccccc1/C=N/O.[Cl-]	Non-Toxic	Non-Toxic	Non-Toxic
CCCCN(CC(=O)NCc1ccccc1)C(=O)CCCCCn1ccnc1/C=N/O	Non-Toxic	Non-Toxic	

Reference: ChEMBL document CHEMBL4024757, “Application of the Ugi Multicomponent Reaction in the Synthesis of Reactivators of Nerve Agent Inhibited Acetylcholinesterase” (2017)
